Measured affinities in a library of Ab-14 heavy chain variants

Target: peptide PDVDLGDISGINAS, taken from heptad repeat 2 (HR2) of SARS-CoV-2 spike.

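Phage display of a naive human antibody library on the peptide gave the parent. Library AAYL49 holds single substitutions and randomly drawn double and triple substitutions in the CDRs. In AlphaSeq, yeast of one mating type display the scFv and yeast of the other type display the target. The frequency of each diploid, read from paired DNA barcodes, reflects how well the two displayed proteins bind. Each replicate has its own calibration line, from reference interactions of the BCL2 family. There are three technical replicates.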

Parent scFv Ab-14: VH joined to VL by the linker GGGGSGGGGSGGGGS. Changes lie in the heavy chain CDRs alone.
VH: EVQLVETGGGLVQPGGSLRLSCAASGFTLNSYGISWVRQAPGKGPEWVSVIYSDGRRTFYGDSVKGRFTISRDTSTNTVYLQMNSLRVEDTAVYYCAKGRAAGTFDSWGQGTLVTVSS
VL: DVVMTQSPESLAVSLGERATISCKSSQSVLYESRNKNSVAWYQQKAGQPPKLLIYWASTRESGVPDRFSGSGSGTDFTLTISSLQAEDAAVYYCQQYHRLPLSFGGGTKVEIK

Each variant is given by its three heavy chain CDRs, as the data file delimits them; those of the parent are GFTLNSYGIS, VIYSDGRRTFYGDSVK, GRAAGTFDS. All variants listed here change A102 of the VH, counted from its first residue. The Kd shown is the geometric mean over detected replicates; a lower Kd is a better binder. An entry "no signal" has no value in the source: the pair was not observed among the diploids in any replicate. This suggests poor binding but is not conclusive. Three control strains display no target. For library AAYL49, 15% of the pairings with them gave a signal, with a median of 11 µM and one signal in twenty below 680 nM, so weak values seen in few replicates may be background.

Variant GFTLNSYGIS | VIYSDHARTFYGDSVK | GRAHGTFDS gave no signal (0 of 3 replicates). Variant GFTLNSYGIS | VIYIDGRRTFYGDSVK | GRAQGTFDS showed 94 µM (1 of 3 replicates). Variant GFTLNSKGIS | VIYSYGRRTFYGDSVK | GRAPGTFDS gave no signal (0 of 3 replicates). Variant GFHLFSYGIS | VIYSDGRRTFYGDSVK | GRALGTFDS showed 2.9 µM (2 of 3 replicates). With GFTLNSYGIS | VIYSDGRRTFPGDSVK | GRAMGTFDS the result was no signal (0 of 3 replicates). With GFTLNSYGIS | VIYSDGRRTFYGDSVF | GRAEGTFDS the result was no signal (0 of 3 replicates). Variant GFTLNTYGIS | VIYSDGRDTFYGDSVK | GRALGTFDS showed 27 µM (3 of 3 replicates). Variant GFTLNLYGIS | VIYSDGRRTFYGASVK | GRAKGTFDS gave no signal (0 of 3 replicates). Variant GFTLNSYGIS | VIYSDGRRTFYGDSVR | GRAHSTFDS showed 2.7 µM (1 of 3 replicates).

With SFTLNSYGIS | VIYSDGRRTFYGDSVK | GRNFGTFDS the result was no signal (0 of 3 replicates). With GFTLNSYGIS | VIYNDGRRTFYGDSVK | GRAFGTFMS the result was no signal (0 of 3 replicates). Variant GFTLNSYGIS | VIYSDGRRTFAGDSVK | SRATGTFDS showed no signal (0 of 3 replicates). With GFTLNSYGIS | VIYSDGRRTFYGDSVK | GRATGHADS the result was 56 nM (3 of 3 replicates). With GFTLNSYPIS | VIYSDGRRTFYGDSVK | GRAVGTFDM the result was 47 µM (3 of 3 replicates). For GFTLNSYGIS | VIYSDGRRTFYGDSVK | GQATGTFDG, the assay gave 3.9 nM (3 of 3 replicates). With GFTLNSYGIV | VIYSDGRRTFMGDSVK | GRAFGTFDS the result was 85 µM (1 of 3 replicates). With GFTLNSYGID | VIYSDGRRTFYGDSVK | GRRLGTFDS the result was 8.0 µM (2 of 3 replicates). Variant GFTLNSYGRS | VIFSDGRRTFYGDSVK | GRAEGTFDS showed 5.1 µM (3 of 3 replicates).

For GFTHNSYGIS | VIYSDGNRTFYGDSVK | GRADGTFDS, the assay gave no signal (0 of 3 replicates). Variant GFTLNSKGIS | VIYSDGRRTFYGDSVK | ERAKGTFDS showed no signal (0 of 3 replicates). Variant GFTLNSYGIS | VIYSDGRRTFYGDSVK | MHAEGTFDS gave 4.4 nM (3 of 3 replicates). Variant GFTLNSYGIS | VIYSDGRRPFYGDSVK | GRARGTPDS showed no signal (0 of 3 replicates). Variant GFTLNSYGIS | VIYSDGRRTFMGDSVK | GRASVTFDS gave 43 µM (1 of 3 replicates). For GFTLNSYGIS | VIYSDGRRTFYGDSVK | GRAWVTMDS, the assay gave 23 nM (3 of 3 replicates). For GFTLNSYNIS | VIYSDGRRTRYGDSVK | GRAIGTFDS, the assay gave 330 µM (1 of 3 replicates). Variant GFTLNQYGIS | VIYSDGRRTFYGDSVK | GRAPGTFDG gave no signal (0 of 3 replicates). Variant GFTLNSYGIS | VIYSDGRRTFVGDSVM | GRASGTFDS showed 58 µM (3 of 3 replicates).

With GFTLNSYGIS | VIYSDGCRNFYGDSVK | GRAKGTFDS the result was no signal (0 of 3 replicates). Variant GFTLNSYGIS | VIYSDGMRTFYGDSAK | GRAWGTFDS showed no signal (0 of 3 replicates). Variant GFTLNSYDIS | VIYIDGRRTFYGDSVK | GRARGTFDS showed 1.1 µM (1 of 3 replicates). For GFPLNSYGIS | VIYSDGRRTFYGDSVK | GRGMGTFDS, the assay gave 38 nM (3 of 3 replicates). Variant GFTLNSYGIS | VIYSFGRRQFYGDSVK | GRAYGTFDS showed no signal (0 of 3 replicates). For GFTLNSYGIS | VIYSDGRRTFYGDEVK | GRASGTFSS, the assay gave 68 µM (3 of 3 replicates). With GFTLNSYGIS | VIYSDGRRTFYPDSVK | GRARGTFDS the result was 62 nM (3 of 3 replicates). Variant GTTLNSYGIS | VIYSDGRRTFYGDIVK | GRAFGTFDS showed no signal (0 of 3 replicates). Variant GFTLCSYGIS | VIWSDGRRTFYGDSVK | GRATGTFDS gave no signal (0 of 3 replicates).

Variant GFTLISYGIS | VIYQDGRRTFYGDSVK | GRANGTFDS gave no signal (0 of 3 replicates). With GFTLNSYGIS | VIYSDGRRTFYGDSVK | GDPWGTFDS the result was no signal (0 of 3 replicates). Variant WFTLNSYSIS | VIYSDGRRTFYGDSVK | GRASGTFDS showed 9.8 µM (1 of 3 replicates). With GFTLNSYGIS | VIYSDGRRTFYGDSTK | GRANNTFDS the result was 1.9 µM (2 of 3 replicates). With GFTLNSYGIS | VMYSDGRRTFYGDSVK | GRAEGTFDS the result was no signal (0 of 3 replicates). With GFTLNSYGIS | VIYSDGRRTFYGDSVK | GRAKGTDDQ the result was 8.2 µM (1 of 3 replicates). For GFTLNSYGIS | VIYSDGRRTFYGDSVK | GRHKGTFDS, the assay gave 34 nM (3 of 3 replicates). For GFTLNSYGIS | VIYQYGRRTFYGDSVK | GRADGTFDS, the assay gave 31 µM (1 of 3 replicates).

Excerpt, the first 4 entries:

{"CDR-H1": "GFTLNSYGIS", "CDR-H2": "VIYSDHARTFYGDSVK", "CDR-H3": "GRAHGTFDS", "Kd (apparent)": "no signal", "detected": "0 of 3"}
{"CDR-H1": "GFTLNSYGIS", "CDR-H2": "VIYIDGRRTFYGDSVK", "CDR-H3": "GRAQGTFDS", "Kd (apparent)": "94 µM", "detected": "1 of 3"}
{"CDR-H1": "GFTLNSKGIS", "CDR-H2": "VIYSYGRRTFYGDSVK", "CDR-H3": "GRAPGTFDS", "Kd (apparent)": "no signal", "detected": "0 of 3"}
{"CDR-H1": "GFHLFSYGIS", "CDR-H2": "VIYSDGRRTFYGDSVK", "CDR-H3": "GRALGTFDS", "Kd (apparent)": "2.9 µM", "detected": "2 of 3"}

Source: Engelhart et al. 2022 (doi:10.1038/s41597-022-01779-4), MIT Lincoln Laboratory and A-Alpha Bio; data file from the FLAb repository.